# From ChEMBL document CHEMBL1149170, “Khellinone derivatives as blockers of the voltage-gated potassium channel Kv1.3: synthesis and immunosuppressive activity” (J Med Chem, 2004)
# Chains of the proteins cited; added tags and fusions are not shown.
# UniProt P22001, whole entry: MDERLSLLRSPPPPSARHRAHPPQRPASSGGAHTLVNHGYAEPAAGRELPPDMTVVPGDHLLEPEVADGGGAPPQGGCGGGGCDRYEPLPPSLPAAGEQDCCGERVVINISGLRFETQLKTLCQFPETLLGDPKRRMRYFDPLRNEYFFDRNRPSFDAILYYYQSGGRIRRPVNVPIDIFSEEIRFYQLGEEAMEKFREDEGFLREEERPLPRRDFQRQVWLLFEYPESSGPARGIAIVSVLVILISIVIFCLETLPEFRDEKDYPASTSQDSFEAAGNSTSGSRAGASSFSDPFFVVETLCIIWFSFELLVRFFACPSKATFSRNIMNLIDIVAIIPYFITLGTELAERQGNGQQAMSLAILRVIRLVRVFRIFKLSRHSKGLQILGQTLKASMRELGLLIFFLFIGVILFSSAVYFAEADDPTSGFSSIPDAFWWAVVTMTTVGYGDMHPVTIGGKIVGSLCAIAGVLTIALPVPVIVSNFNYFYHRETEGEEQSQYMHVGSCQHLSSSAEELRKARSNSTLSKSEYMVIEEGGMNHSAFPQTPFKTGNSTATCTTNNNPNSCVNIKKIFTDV
# Molecular target: Potassium voltage-gated channel subfamily A member 3 (Homo sapiens, UniProt P22001)
# Assay: Dissociation constant for the blockage of voltage-gated potassium channel subunit Kv1.3 in human lymphocytes
# Format: cell-based
smiles,measurement,value
COc1c(O)c(C(=O)CCc2ccccc2)c(OC)c2c1OCC2,Kd,1500 nM
